# scFv variants of Ab-14 (light chain) against a SARS-CoV-2 spike peptide

Values reported by Li et al. 2023, doi:10.1038/s41467-023-39022-2 (FLAb copy).

Target peptide (SARS-CoV-2 spike, HR2 region): PDVDLGDISGINAS

Parent: Ab-14, a human scFv built as VH, a (GGGGS)3 linker, VL. Only the CDRs of the light chain vary.
VH: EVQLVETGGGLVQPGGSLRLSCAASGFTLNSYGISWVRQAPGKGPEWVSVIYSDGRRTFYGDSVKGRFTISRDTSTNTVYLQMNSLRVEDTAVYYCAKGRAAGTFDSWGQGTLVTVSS
VL: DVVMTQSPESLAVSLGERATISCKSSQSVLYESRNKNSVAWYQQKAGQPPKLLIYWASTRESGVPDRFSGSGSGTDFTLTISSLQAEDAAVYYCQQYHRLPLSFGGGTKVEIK

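Phage display of a naive human antibody library on the peptide gave the parent. The variants were designed computationally from a first round of random CDR variants and then made and measured. Their group label is 14L_GP_Gen (GP: Gaussian process model; Gen: genetic algorithm; a sequence that several methods proposed may carry one label only). The scFvs were displayed on barcoded MATa yeast, the peptide on MATalpha yeast. After mating in shaken culture at 30 °C for 16 h, diploids were selected and their barcode pairs sequenced. A regression on co-assayed BCL2-family reference pairs converts the normalised counts of each replicate to an apparent Kd. Each pool was mated in six replicate cultures.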

The parent's light chain CDRs are KSSQSVLYESRNKNSVA, WASTRES, QQYHRLPLS; each variant's own CDRs replace them letter for letter.
Numbers give log10(Kd / nM), so 0 is 1 nM and 3 is 1 µM. Smaller is tighter.
A sequence measured in both rounds can read differently, since the two assays cover different ranges.
Nonspecific signal, from three strains lacking the peptide, appeared in 4% of pairings of all light chain designs, centred on 2.64 (5% of these signals below 1.59); values are not corrected for it. For each scFv, signals with the empty controls are counted beside the result, with their mean in brackets.
Of ten entries with the parent sequence, four were seen in most replicates (averages 0.34 to 2.37), three in one and three in none, so single entries are noisy.
The authors averaged sequences with at least three values out of six and counted those with two or fewer as poor binders.

| # | CDR-L1 | CDR-L2 | CDR-L3 | log10 Kd (nM) by replicate | signal with controls |
|---|---|---|---|---|---|
| 1 | KLSQSVLYESRWKNSVA | NASTRES | QQYHRLPLS | 0.64 / 0.76 / 0.73 / 0.35 / 0.60 / 0.71 | 1/18 (3.53) |
| 2 | KVSQSGLYEQRNKNSVA | NASTRES | QQYHRLPLS | 0.69 / 0.10 / 0.37 / 0.18 / 0.21 / 0.54 | 0/18 |
| 3 | KLPQSELYESRNKNSVA | EASTREV | QQYHRLPLS | -0.43 / -0.90 / -0.02 / -0.36 / -0.22 / -0.46 | 0/18 |
| 4 | KLSQSFLYESRNKNNVA | HASTRES | QQYHRLPLS | -0.38 / -0.52 / -0.70 / -0.72 / -0.71 / -0.66 | 0/18 |
| 5 | KLQQSVCYESRNKNSVA | NASTRES | QQYHRLPLS | 0.27 / 0.22 / 0.17 / 0.05 / 0.21 / 0.11 | 0/18 |
| 6 | KFSQSYLYESRNKNSVA | NASTREQ | QQYHRLPLS | -0.21 / -0.57 / -0.48 / -0.57 / -0.55 / -0.39 | 0/18 |
| 7 | KVSQSHLYESRNKNSVA | NASTRES | QQYHRLPLS | 0.01 / -0.18 / -0.15 / -0.32 / -0.29 / -0.14 | 2/18 (2.60) |
| 8 | KLQQSVLYESRNKNSVA | NASTREE | QQYHRLPLS | 0.66 / 0.35 / 0.33 / 0.03 / 0.28 / -0.06 | 0/18 |
| 9 | KLSQSDLYESRNKNSVA | SASQRES | QQYHRLPLS | -0.07 / -0.42 / -0.38 / -0.27 / -0.23 / -0.13 | 0/18 |
| 10 | KVSQSELYESRNKNSVA | GASTRES | QQYHRLPLS | 0.13 / 0.26 / -0.02 / -0.24 / -0.25 / -0.08 | 0/18 |
| 11 | KISQSVLYESRNKNSVA | NGSTRES | QQYHRLPLS | -0.39 / -0.43 / -0.38 / -0.45 / -0.60 / -0.34 | 0/18 |
| 12 | KFSQSMLYESRNKNSVA | NASQRLS | QQYHRLPLS | 0.27 / 0.22 / 0.01 / 0.24 / 0.31 / 0.49 | 0/18 |
| 13 | KLSQSTLYESRNKNSVA | HASTRES | QQYHRLPLS | 0.09 / -0.06 / -0.02 / -0.14 / 0.02 / 0.11 | 2/18 (3.74) |
| 14 | KLQQSVPYESRNKNSVA | NASTRES | QDYHRLPLS | 0.56 / 0.41 / 0.26 / 0.17 / 0.22 / 0.68 | 0/18 |
| 15 | KLSFSWLYESRNKNSVA | NASTRES | QQYHRLPLS | 0.02 / 0.04 / -0.07 / -0.13 / -0.13 / 0.16 | 2/18 (2.35) |
| 16 | KLSQSVLYESRVKNNVA | EASTRES | QQYHRLPLS | 0.00 / -0.24 / -0.16 / -0.37 / -0.15 / -0.14 | 2/18 (2.47) |
| 17 | KLSQSVLYESRNKNSVA | HASTRSS | QQYHRLPLS | 0.21 / 0.04 / 0.00 / 0.00 / -0.16 / 0.39 | 1/18 (4.48) |
| 18 | KVSPSVLYESRNKNSVA | EASTREQ | QQYHRLPLS | 0.19 / 0.01 / 0.00 / -0.11 / -0.07 / 0.15 | 4/18 (2.87) |
| 19 | KLSQSVLYESRNKNNVA | GASKRES | QQYHRLPLS | 0.10 / -0.23 / -0.08 / -0.20 / -0.27 / 0.14 | 2/18 (2.71) |
| 20 | KLYQSVLYESRNKNNVA | NASTRES | QQYHRLPLS | -0.34 / -0.41 / -0.31 / -0.64 / -0.36 / -0.42 | 0/18 |
| 21 | KLKQSVLYESRNKNSVA | NASTRCS | QQYHRLPLS | -0.10 / -0.43 / -0.26 / -0.37 / -0.44 / 0.04 | 1/18 (2.51) |
| 22 | KMPQSYLYESRNKNSVA | NASQRES | QQYHRLPLS | -0.28 / -0.36 / -0.36 / -0.42 / -0.43 / -0.12 | 2/18 (2.87) |
| 23 | KLQQSVMYESRNKNSVA | EASTREV | QQYHRLPLS | 0.02 / 0.01 / -0.08 / -0.09 / -0.14 / -0.26 | 0/18 |
| 24 | KVSPSQLYESRNKNSVA | NASTRES | QQYHRLPLS | -0.16 / -0.22 / -0.62 / -0.77 / -0.17 / -0.62 | 0/18 |
| 25 | KLSQSELYESRNKNSVA | EASKRES | QQYHRLPLS | -0.25 / -0.40 / -0.38 / -0.39 / -0.28 / -0.16 | 0/18 |
| 26 | KLSQSELYESRNKNSVA | NASQRWS | QQYHRLPLS | 0.48 / 0.44 / 0.35 / 0.25 / 0.64 / 0.61 | 0/18 |
| 27 | KLSQSVLYEERNSNSVA | NASQRES | QQYHRLPLS | 0.67 / 0.44 / 0.48 / 0.31 / 0.27 / 0.44 | 1/18 (2.28) |
| 28 | KLSQSVLYESRQKNSVA | NASQRES | QQYHRLPLS | -0.31 / -0.41 / -0.36 / -0.53 / -0.61 / -0.22 | 0/18 |
| 29 | KLSQSVLYESRNKNSVA | NGSTREM | QQYHRLPLS | 0.75 / 0.14 / -0.11 / 0.17 / 0.18 / 0.24 | 0/18 |
| 30 | KVSQSWLYESRNKNSVA | DASQRES | QQYHRLPLS | -0.21 / -0.29 / -0.32 / -0.47 / -0.38 / -0.29 | 2/18 (3.03) |
| 31 | KLSSSQLYESRNKNSVA | NASTRES | QQYHRLPLS | -0.25 / -0.20 / -0.52 / -0.62 / -0.15 / -0.31 | 0/18 |
| 32 | KLYQSHLYESRNKNSVA | NASTRES | QQYHRLPLS | 0.11 / 0.02 / 0.09 / 0.07 / 0.11 / 0.06 | 2/18 (2.14) |
| 33 | KLSQSVLYESRNPWSVA | NASTRES | QQYHRLPLS | -0.19 / -0.11 / -0.25 / -0.61 / -0.48 / -0.29 | 1/18 (2.36) |
| 34 | KLSQSVLYESRNKNSVA | NANTRES | QQYHRLPLS | 0.12 / 0.09 / 0.09 / -0.33 / 0.26 / 0.32 | 0/18 |
| 35 | KLQQSVPYESRNKNSVA | NASTRLS | QQYHRLPLS | -0.34 / -0.33 / 0.11 / -0.49 / -0.33 / -0.21 | 0/18 |
| 36 | KLLQSVLYESRNKNSVA | EASTRES | QQYHRLPLS | 0.00 / 0.04 / 0.16 / -0.11 / -0.09 / 0.02 | 2/18 (2.21) |
| 37 | KLSQSVPYESRNKNSVA | NASTRES | QQYHRLPLE | 0.21 / 0.20 / -0.05 / 0.07 / 0.23 / 0.45 | 0/18 |

Excerpt, the first 3 entries:

| CDR-L1 | CDR-L2 | CDR-L3 | log10 Kd (nM) by replicate | signal with controls |
|---|---|---|---|---|
| KLSQSVLYESRWKNSVA | NASTRES | QQYHRLPLS | 0.64 / 0.76 / 0.73 / 0.35 / 0.60 / 0.71 | 1/18 (3.53) |
| KVSQSGLYEQRNKNSVA | NASTRES | QQYHRLPLS | 0.69 / 0.10 / 0.37 / 0.18 / 0.21 / 0.54 | 0/18 |
| KLPQSELYESRNKNSVA | EASTREV | QQYHRLPLS | -0.43 / -0.90 / -0.02 / -0.36 / -0.22 / -0.46 | 0/18 |